This note sets out measurements from article PMC8252765, “Human Oxygenase Variants Employing a Single Protein Fe^II Ligand Are Catalytically Active” (Angewandte Chemie (International Ed. in English), 2021).

The test system of one experiment is T1, wt His6-AspH315-758.
T1 construct: Conditions: 0.1 μM wt His6-AspH315-758 using; His6 (N); made in house
In words: Steady-state kinetics of wt AspH by SPE-MS. Format: biochemical, human. The following applies: pH 7.5. As to the method: Supporting Figure S4. Kinetic parameters for wt AspH (continues on the following page). Turnover numbers (kapp) and Michaelis constants (Kapp) of wt AspH were determined in i ndependent triplicates for 2OG and […]
ammonium iron(II) sulfate hexahydrate (FAS, (NH 4)2Fe(SO 4)2·6H2O), both in the presence and absence of L - ascorbic acid (LAA ) monitoring the AspH-catalysed hydroxylation of the hFX-EGFD186-124-4Ser peptide (Supporting Figure S2a) by SPE-MS (SPE-MS parameters are given in Section 2 of the Supporting Information).
Note that the hFX-EGFD186-124-4Ser peptide substrate cannot be detected by SPE-MS at low concentrations, hampering an accurate determination of its wt AspH Km-value. Conditions: 0.1 μM wt His6-AspH315-758 using […]
variable concentrations of 2OG, FAS, and hFX-EGFD186-124-4Ser, respectively, in 25 mM HEPES (pH 7.5, 20° […]
C; note, to increase enzyme activity, 50 mM NaCl was added to the reaction buffer). Measurement times were normalized to the first sample injection analysed after the addition of the Enzyme Mixture to the Substrate Mixture (t = 0 s), by which time low levels of hydroxylation were manifest. Data are shown as the mean average of three independent runs (n = 3; mean ± standard deviation, SD). Turnover numbers (kapp) were calculated from the […]

Another experiment has as its target T2, H725A His6-AspH315-758 (Homo sapiens, UniProt Q12797, H725A).
T2 construct: containing H679A or H725A His6-AspH315-758 variant (0.2 μM); made in house; host or cells: E. coli BL21 (DE3), pET-28a(+)
T2 sequence (Q12797 315-758 H725A): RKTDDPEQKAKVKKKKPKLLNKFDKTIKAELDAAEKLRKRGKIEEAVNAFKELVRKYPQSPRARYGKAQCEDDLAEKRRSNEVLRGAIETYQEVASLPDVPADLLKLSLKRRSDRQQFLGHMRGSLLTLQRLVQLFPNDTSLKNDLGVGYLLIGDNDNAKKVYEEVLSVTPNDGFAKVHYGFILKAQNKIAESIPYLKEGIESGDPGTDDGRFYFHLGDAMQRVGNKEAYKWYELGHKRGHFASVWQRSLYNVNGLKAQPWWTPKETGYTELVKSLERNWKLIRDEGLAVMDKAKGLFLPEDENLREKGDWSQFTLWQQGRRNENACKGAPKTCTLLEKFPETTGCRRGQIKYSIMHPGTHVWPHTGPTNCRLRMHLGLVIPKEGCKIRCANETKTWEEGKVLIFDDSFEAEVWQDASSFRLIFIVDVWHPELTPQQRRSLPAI
In words: Steady-state kinetics of H725A AspH by SPE-MS. Type of experiment: biochemical. The following applies: fold greater than that of wt AspH. As for the experimental part: page 11: Supporting Figure S6. Kinetic parameters for […] AspH (continues on the following page). Turnover numbers (kapp or k ) and Michaelis constants (Kapp or K ) of the […] AspH-catalysed hydroxylation of […] peptide by SPE- MS (SPE-MS parameters are given in Section 2 of the Supporting Information). […] HEPES (pH 7.5, 20° C). […] Data are shown as the mean average of three independent runs (n = 3; mean ± standard deviation, SD). Turnover numbers (kapp or k ) were calculated from the maximum velocities (vapp or v ) values obtained, cat cat max max assuming ideal active site availability as supported by a reported active site titration of wt AspH.[4] (a) Time course of the […] AspH for Fe(II) in the absence of LAA; (c) Kapp of […] AspH for Fe(II) in the absence m of LAA. (d) Time course of the […] AspH for Fe(II) in the presence of LAA; (f) Kapp of […] AspH for Fe(II) in the m presence of LAA. […] AspH variant-catalysed hydroxylation reaction of […] (k) hydroxylation rates used to determine kinetic parameters of […] AspH for […]. […] AspH for […] peptide substrate. […]

SMILES strings stand for the structures. Where “and” joins values, the source holds several entries; their conditions need not be identical. Equal values may be shown once.

Consider `O=C(O)CCC(=O)C(=O)O` [2OG, 2‐oxoglutarate], for which, in the experiment with wt His6-AspH315-758, the Kmapp entry was “≈ 1.1 μM and 1.1±0.4 μM”; the kcatapp is 0.31 ± 0.03 s⁻¹. For the same compound, the “Kmapp‐value for 2OG, H725A AspH relative to wt AspH” value on H725A His6-AspH315-758 is reported as “≈ 200 times”.
